Data published in US12492236B2, “Fusion proteins for the treatment of cardiometabolic diseases” (Shattuck Labs, Inc., priority 2022, dated 2025).

Test system: HFD-fed mice (Male C57BL/6)
Assay: longer-term obesity model in HFD-fed mice
From the text: Briefly, mice (Male C57BL/6) were of approximately 13 weeks of age were housed 4 mice per cage. Following 2 weeks of acclimation, mice were introduced to 60% kcal HFD (Research Diets D12492). Cages were changed once, then changed once a week. Weekly body weights and non-fasted blood glucose were collected. […] The longer-term obesity model assesses a number of end points associated with obesity related type 2 diabetes (FIG. 6A).
Mice (Male C57BL/6) were of approximately 13 weeks of age were housed 4 mice per cage. Following 2 weeks of acclimatation, mice were introduced to 60% kcal HFD (Research Diets D12492). Cages were changed once, then changed once a week. Weekly body weights and non-fasted blood glucose were collected.
Mice were injected by tail vein with vehicle or the drugs on Day 0, Day 4, Day 7, Day 10, Day 14, and Day 18. Body weights were measured every 2 days. Change in body weight was calculated and plotted.
Cumulative food intake was measured between day 0 and 3, between day 4 and 7, between day 7 and day 11, and between day 11 and day 14, and represented as average daily food intake. […]
Blood glucose levels were measured on Days 0, 1, 10 and 15 and plotted. […]
To further analyze the changes in liver, histopathological analysis was conducted. Briefly, the liver tissue was stained with hematoxylin and eosin (H&E) and evaluated using standard techniques.

tirzepatide [reference compound] was tested, and the “clinical observations post dose” value was “moribund, lethargic, scruffy, and consumed significantly less food and water immediately post dose”.
